## CycPeptMPDB entries from one study

Data: CycPeptMPDB; original report Furukawa et al. 2016, doi:10.1021/acs.jmedchem.6b01246.

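The data file gives no further conditions (lipid, pH, time, direction or concentration), and values from different papers need not be comparable. Other peptides of the study may be missing here. Peptides that the database sets to -10, its floor, are left out.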

PAMPA measures passive passage through an artificial lipid membrane.
P is given in units of 10^-6 cm/s (from log10 values with two decimals); larger means faster passage.

SMILES,PAMPA (10^-6 cm/s)
CCCC[C@@H]1NC(=O)[C@H](CC(C)C)N(C)C(=O)CN(CCc2cccnc2)C(=O)[C@H](Cc2ccc3ccccc3c2)NC(=O)CN(CC(C)C)C(=O)[C@H]2CCCN2C1=O,3
CCCC[C@@H]1NC(=O)[C@H](CC(C)C)N(C)C(=O)CN(Cc2ccccc2)C(=O)[C@H](Cc2ccc3ccccc3c2)NC(=O)CN(Cc2ccc(Cl)cc2)C(=O)[C@H]2CCCN2C1=O,0.00035
CCCC[C@@H]1NC(=O)[C@H](CC(C)C)N(C)C(=O)CN(CCCc2cnn(C)c2)C(=O)[C@H](CC(C)C)NC(=O)CN(Cc2ccccc2Cn2cccn2)C(=O)[C@H]2CCCN2C1=O,1.8
CCCC[C@@H]1NC(=O)[C@H](CC(C)C)N(C)C(=O)CN(CCCc2ccccc2)C(=O)[C@H](C)NC(=O)CN(CCN2CCOCC2)C(=O)[C@H]2CCCN2C1=O,1.4
CCCC[C@@H]1NC(=O)[C@H](CC(C)C)N(C)C(=O)CN(Cc2ccccc2)C(=O)[C@H](C)NC(=O)CN(CCC)C(=O)[C@H]2CCCN2C1=O,7.6
CCCC[C@@H]1NC(=O)[C@H](CC(C)C)N(C)C(=O)CN(CC2CCCCC2)C(=O)[C@H](CC(C)C)NC(=O)CN(CCC)C(=O)[C@H]2CCCN2C1=O,2
CCCC[C@@H]1NC(=O)[C@H](CC(C)C)N(C)C(=O)CN(CCCN2CCCC2=O)C(=O)[C@H](Cc2ccc3ccccc3c2)NC(=O)CN(CCCCc2ccccc2)C(=O)[C@H]2CCCN2C1=O,0.052
CCCC[C@@H]1NC(=O)[C@H](CC(C)C)N(C)C(=O)CN(Cc2ccccc2)C(=O)[C@H](Cc2ccccc2)NC(=O)CN(CCCOC(C)C)C(=O)[C@H]2CCCN2C1=O,3
CCCC[C@@H]1NC(=O)[C@H](CC(C)C)N(C)C(=O)CN(CCc2cccnc2)C(=O)[C@H](Cc2ccccc2)NC(=O)CN(Cc2cc(CC(C)C)on2)C(=O)[C@H]2CCCN2C1=O,2.7
CCCC[C@@H]1NC(=O)[C@H](CC(C)C)N(C)C(=O)CN(Cc2ccccc2)C(=O)[C@H](CC(C)C)NC(=O)CN(CCCCc2ccccc2)C(=O)[C@H]2CCCN2C1=O,0.03
CCCCCN1CC(=O)N(C)[C@@H](CC(C)C)C(=O)N[C@@H](CCCC)C(=O)N2CCC[C@@H]2C(=O)N(CC(C)C)CC(=O)N[C@@H](C)C1=O,13
CCCCCN1CC(=O)N(C)[C@@H](CC(C)C)C(=O)N[C@@H](CCCC)C(=O)N2CCC[C@@H]2C(=O)N(CCCCc2ccccc2)CC(=O)N[C@@H](Cc2ccccc2)C1=O,0.0031
CCCC[C@@H]1NC(=O)[C@H](CC(C)C)N(C)C(=O)CN(Cc2ccccc2)C(=O)[C@H](Cc2ccccc2)NC(=O)CN(Cc2ccc(Cl)cc2)C(=O)[C@H]2CCCN2C1=O,0.0078
CCCC[C@@H]1NC(=O)[C@H](CC(C)C)N(C)C(=O)CN(CC2CCOCC2)C(=O)[C@H](CC(C)C)NC(=O)CN(Cc2ccc(Cl)cc2)C(=O)[C@H]2CCCN2C1=O,6
CCCC[C@@H]1NC(=O)[C@H](CC(C)C)N(C)C(=O)CN(CCOC)C(=O)[C@H](CC(C)C)NC(=O)CN(Cc2ccc3c(c2)OCO3)C(=O)[C@H]2CCCN2C1=O,9.1
CCCC[C@@H]1NC(=O)[C@H](CC(C)C)N(C)C(=O)CN(Cc2ccccc2)C(=O)[C@H](C)NC(=O)CN(Cc2ccccc2Cn2cccn2)C(=O)[C@H]2CCCN2C1=O,5.5
CCCCCN1CC(=O)N(C)[C@@H](CC(C)C)C(=O)N[C@@H](CCCC)C(=O)N2CCC[C@@H]2C(=O)N(CCCCc2ccccc2)CC(=O)N[C@@H](Cc2ccc3ccccc3c2)C1=O,0.0078
CCCC[C@@H]1NC(=O)[C@H](CC(C)C)N(C)C(=O)CN(CCCc2cnn(C)c2)C(=O)[C@H](Cc2ccccc2)NC(=O)CN(Cc2ccc(Cl)cc2)C(=O)[C@H]2CCCN2C1=O,0.78
CCCC[C@@H]1NC(=O)[C@H](CC(C)C)N(C)C(=O)CN(CC2CCCCC2)C(=O)[C@H](C)NC(=O)CN(CCCCc2ccccc2)C(=O)[C@H]2CCCN2C1=O,0.58
CCCC[C@@H]1NC(=O)[C@H](CC(C)C)N(C)C(=O)CN(CCOc2ccccc2)C(=O)[C@H](Cc2ccc3ccccc3c2)NC(=O)CN(CCCCc2ccccc2)C(=O)[C@H]2CCCN2C1=O,0.011
CCCC[C@@H]1NC(=O)[C@H](CC(C)C)N(C)C(=O)CN(CCCc2ccccc2)C(=O)[C@H](C)NC(=O)CN(CC(C)C)C(=O)[C@H]2CCCN2C1=O,11
CCCC[C@@H]1NC(=O)[C@H](CC(C)C)N(C)C(=O)CN(CCCc2ccccc2)C(=O)[C@H](C)NC(=O)CN(CCCCc2ccccc2)C(=O)[C@H]2CCCN2C1=O,0.76
CCCC[C@@H]1NC(=O)[C@H](CC(C)C)N(C)C(=O)CN(CCCN2CCCC2=O)C(=O)[C@H](CC(C)C)NC(=O)CN(Cc2ccc3c(c2)OCO3)C(=O)[C@H]2CCCN2C1=O,1
CCCC[C@@H]1NC(=O)[C@H](CC(C)C)N(C)C(=O)CN(CC2CCCCC2)C(=O)[C@H](Cc2ccccc2)NC(=O)CN(CCC)C(=O)[C@H]2CCCN2C1=O,0.59